From patent US11345702B1 (Myoforte Therapeutics, Inc., priority 2020, dated 2022)

The chains behind the UniProt entries cited, without tags or fusion partners.
UniProt P15428, whole entry: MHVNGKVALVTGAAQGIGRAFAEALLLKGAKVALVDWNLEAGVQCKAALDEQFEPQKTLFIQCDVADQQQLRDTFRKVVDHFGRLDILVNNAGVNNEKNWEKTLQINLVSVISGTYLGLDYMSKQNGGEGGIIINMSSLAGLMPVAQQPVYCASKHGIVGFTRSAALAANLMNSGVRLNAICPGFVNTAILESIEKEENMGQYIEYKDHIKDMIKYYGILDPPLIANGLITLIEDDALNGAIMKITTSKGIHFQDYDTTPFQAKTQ

How the values were obtained:
[1] = biological target: 15-PGDH/HPGD (Homo sapiens (Human), UniProt P15428); test: hPGDH inhibitor screening biochemical assay; settings: read-out: hPGDH: Average IC50
Protocol: A hydroxyprostaglandin dehydrogenase inhibition screening biochemical assay can be performed to assess the synthesized inhibitors provided herein. Provided herein is an exemplary biochemical assay for hPGDH inhibitor screening.
The in vitro biochemical assay can be performed in white, 384 plates in total 20 μl reaction volume consisting of 10 nM of 15-PGDH/HPGD (R&D System #5660-DH), 15 μM Prostaglandin E2 (Sigma, Cat #P5640-10MG) and 0.25 mM (3-Nicotinamide adenine dinucleotide sodium salt (Sigma, Cat #N0632-5G) made in reaction buffer (50 mM Tris-HCl, pH 7.5, 0.01% Tween 20) at 10-point dose response curve for test/tool compounds. Briefly, 5 μl (4×) of compounds solution and 5 μl (final concentration, 10 nM) of enzyme solution is added to white 384 well plates and incubated for 10 mins at 37° C. 5 μl (4×) of Prostaglandin E2 and 5 μl (4×) of β-Nicotinamide adenine dinucleotide sodium salt is added to the wells and incubated for 10 mins at room temperature. Fluorescence is recorded at ex/em=340 nm/485 nm. The percentage (%) inhibition of enzyme activity was determined relative to positive control (1% DMSO) and IC50 was calculated using GraphPad prism software (four parameter-variable slope equation).

[2] = Solubility at pH 7.4; format: physicochemical; settings: 6-5 ring core

Solubility at pH 7.4 (μM) [2] [μM]	SMILES	IC50 [1] [nM]
–	O=C(NC1CCS(=O)(=O)CC1)c1ccc(-n2ccc3cc(C(=O)N4CCC(F)(F)CC4)cnc32)cc1	< 100
34	CCOC(=O)c1nc2cc(C(=O)N3CCCCC3)ccc2n1-c1cccc(Cl)c1 [MF-PGDH-027, ethyl 1-(3-chlorophenyl)-5-(piperidine-1-carbonyl)-1H-benzo[d]imidazole-2-carboxylate]	–
